Data: patent publication US20160139120A1 (The Trustees of Columbia University in the City of New York, priority 2013, published 2016)
Entries after “also recorded” stand apart in the source; their conditions may differ.

What was measured:
C1q [1] = molecular target: T1, C1q (Homo sapiens, UniProt P02745+P02746+P02747); assay: ELISA-like / blot assays of direct C1q binding to immobilized sRAGE
T1 construct: purchased Quidel A400
Procedure: MaxiSorp plates were coated with 20 μg/ml sRAGE. […] Association and dissociation signals were monitored by surface plasmon resonance. […] Results in A, B and E were mean±SD of three independent experiments. *p<0.01 as compared to BSA. Results in C and D were representatives of three independent experiments. (F) MaxiSorp plate coating and blocking were similarly performed as in FIG. 1.
96-well NUNC MaxiSorp plates were coated with 100 μl of 0-50 μg/ml of sRAGE in PBS at 4° C. overnight; remaining binding sites were blocked with 2% BSA in PBS for 2 h at room temperature. […] The final peroxidase activity was monitored at 492 nm with o-phenylenediamine dihydrochloride and hydrogen peroxide as substrates. A distinct dot blot-like assay was performed on the surface of a nitrocellulose membrane as follows: 1 μl of sRAGE in PBS was spotted onto a dry nitrocellulose membrane; after the membrane was air-dried, it was washed thoroughly with PBS. Remaining binding sites were blocked with 5% non-fat milk in PBS. […] ECL Western blot detection kit was used to visualize the binding.

complement system = assay: Complement activation assay (C3a formation in human serum); assay type: biochemical; details: for complement activation activity relative to Avastin / human IgG1: immobilized proteins, FIG. 1
Procedure: (B) 2 μg of sRAGE (from insect cells) and 1 mM of phenolphthalein bisphosphate were incubated in 20 μl of fresh human serum for 1 hour at 37° C. in a 5% CO2 incubator. Complement activation was monitored as C3a formation from proteolytic cleavage of C3 by ELISA kit.
B. 2 μg of recombinant human Mac-1 (R&D Systems) and 0.4 μg of sRAGE from HEK293 cells were incubated in solution together and separately in 3 μl of PBS at 25° C. for 30 min; control condition was 3 μl of PBS only, then 7 μl of human serum was added to start 1 hour incubation at 37° C. C3a was assayed by ELISA kit.
C3a levels in fresh human serum (A), C1q-depleted fresh human serum (B) and Mg-EGTA (5 mM Mg Cl2 and 10 mM EGTA) treated fresh human serum (C) were assayed after 1 h incubation at 37° C. in a 96-well NUNC MaxiSorp plate coated with 20 μg/ml of human sRAGE. (D) Complement activation by a fusion protein rhsRAGE/Fc and its Fc fragment. Two different forms of each protein were tested, one was immobilized and the other was free molecule in serum (dissolved). For immobilized forms, 96-well MaxiSorp plate was coated with 50 μg/ml of each protein and blocked with BSA. Complement activation was performed as in (A). For soluble forms of these two proteins, a mixture of 30 μl of fresh human serum and 10 μl of either rhsRAGE/Fc or Fc (200 μg/ml) was incubated for 1 h at 37° C. in a 5% CO2 incubator. Results in (A), (B) and (C) were mean±SD of four independent experiments each performed in triplicate. Results in (D) were mean±SD of three independent experiments. *p<0.01 as compared to BSA.
96-well NUNC MaxiSorp plate was coated with 100 μl of 20 μg/ml of sRAGE in PBS at 4° C. overnight; remaining binding sites were blocked with 2% BSA in PBS for 2 h at room temperature. Complement activation was initiated with incubation of normal human serum (20 μl) or C1q-depleted human serum in the plate at 37° C. in a 5% CO2 incubator. After 1 h incubation, C3a levels in the human serum were determined as a marker of complement activation with human C3a EIA kit according to the manufacturer's instructions.

Escherichia coli = details: wild type mice treated; cited from earlier work
[2] = mouse, in vivo; cited from earlier work
Mac-1 = molecular target: T2, Mac-1 (Homo sapiens, UniProt P05107+P11215); assay: Pull-down of sRAGE and C1q by immobilized Mac-1; assay type: binding; details: ½ PBS
T2 construct: purchased R&D Systems 4047-AM
Procedure: Western blots were used to detect the pull-down amount of sRAGE and C1q. […] Result was a representative of three independent experiments.
(§1) After blocking with 2% BSA in PBS, the plate was incubated with 0.1 ml sRAGE (0.1 mg/ml) in 2% BSA in PBS at room temperature for 1 h. After the wells were washed quickly three times with cold PBS, NuPAGE sample buffer was used to denature and collect sRAGE from the plate for Western blot detection. […] The plate was cooled down on ice for 10 min and washed quickly three-times with cold ½ PBS. SDS-NuPAGE sample buffer was used to dissolve proteins in the plate and used for electrophoresis and Western blots of C1q and sRAGE. Stripping of Western blot membranes was performed with buffer from Pierce according to the manufacturer's instructions.

C1q [3] = molecular target: T1, C1q; assay: Pull-down of sRAGE by immobilized C1q; assay type: binding; details: for pull-down of sRAGE by immobilized C1q: PBS; for C1q-sRAGE binding at reduced ionic strength: PBS diluted four-times (¼ PBS)
Procedure: Pull-down of sRAGE by immobilized BSA and C1q was tested in two different solutions, one was physiological solution—PBS and the other was four-times diluted physiological solution—¼ PBS. […] A representative of three independent experiments was shown.
as §1

denatured and reduced sRAGE: sRAGE denatured and reduced, tested in a Western blot-like procedure
C1q binding in Western blot-like procedure (C1q [1]; denatured and reduced protein, data not shown): C1q binding abilities were lost

rhsRAGE/Fc: chimeric protein combining extracellular domain of human RAGE and Fc region of human IgG1 (R&D Systems 1145-RG)
complement activation by protein in solution (dissolved) (complement system; free molecule in fresh human serum (FIG. 14D)): also activated complement | complement activation by immobilized protein (C3a) (complement system; plate coated 50 μg/ml, fresh human serum (FIG. 14D)): activate the classical complement pathway

sRAGE: human sRAGE, the extracellular domain of the receptor, from Sf9 insect cells or HEK293 cells
defense against the growth and/or dissemination of E. coli (Escherichia coli): weaker defense against the growth and/or dissemination of E. coli | development of acellular capillaries and pericyte ghosts [2]: suppressed the development of acellular capillaries and pericyte ghosts | neuronal dysfunction assessed by electroretinography [2]: attenuated neuronal dysfunction | pull-down of C1q from native human serum by immobilized sRAGE (C1q [1]; 500-fold diluted fresh human serum): pull-down C1q, effectively | binding affinity for C1q relative to human IgG (C1q [1]; FIG. 10F, preliminary data, vs human IgG1 (Avastin)): roughly one tenth | C1q binding to the two immobilized human forms of sRAGE (C1q [1]; purified C1q 2 μg/ml, anti-C1q:HRP detection): comparable binding for C1q | pull-down by immobilized Mac-1, proteins incubated separately (Mac-1): pulled down | pull-down by immobilized Mac-1, sRAGE and C1q co-incubated (Mac-1): increased | pull-down of sRAGE by immobilized C1q (C1q [3]): pull-down sRAGE | C1q-sRAGE binding at reduced ionic strength (C1q [3]): greatly enhanced | C1q-sRAGE binding at reduced ionic strength (C1q [3]; listed as RAGE): RAGE-C1q binding is ionic strength-dependent, as | pull-down of sRAGE by immobilized C1q (C1q [3]; listed as RAGE): Direct RAGE-C1q binding confirmed by pull-down | complement activation by immobilized protein in C1q-depleted human serum (complement system; C1q-depleted human serum): lost their ability to activate the complement system | complement activation activity relative to Avastin / human IgG1 (complement system): 1/8 | complement activation activity relative to Avastin / human IgG1 (complement system; listed as RAGE): one eighth; also recorded: RAGE has ⅛ complement activation activity of | complement activation by immobilized protein (C3a) (complement system; plate coated 20 μg/ml, fresh human serum, 1 h 37° C.): activated the complement system with comparable degrees of activity; also recorded: capable of activating complement systems with comparable activity | complement activation by immobilized protein (C3a) (complement system; plate coated 20 μg/ml, fresh human serum, 1 h 37° C., listed as RAGE): Immobilized RAGE activates classical complement | complement activation in liquid phase (complement system; protein(s) preincubated in PBS then added to fresh human serum (FIG. 13B)): could not activate the complement system
